Only a part is listed here, and it is no random draw. Records with an inconclusive call do not appear. Activity calls are given as the source filed them. Calls come from the whole dose curve; as a rule, active = well fitted cell-killing curve with a large enough effect; inconclusive = small, poorly fitted or top-dose-only effect, or effect the other way; inactive = flat fitted curve, though single readings scatter.
experiment: qHTS assay for MDR1-selective chemotherapeutics: Primary screen using the parental adenocarcinoma cell KB-3-1; details: KB-3-1 viability, CellTiter-Glo ATP luminescence, 72 h; series mostly up to 46.1 µM; activity change, negative = cytotoxic: at the top concentration; note: nearly all actives have a fitted effect of over 60% in size
Excerpt: A prime difficulty in effectively treating cancer is the development of cellular resistance to multiple structurally unrelated anticancer drugs, a phenomenon known as multidrug resistance (MDR). […] Numerous strategies to overcome P-gp-mediated MDR have been explored, including the design of drugs that evade recognition and efflux, and development of inhibitors to block efflux and restore drug accumulation. […] An alternative approach is to exploit resistance by identifying drugs that target MDR cells over the non-resistant parental cells from which they were selected. […] The development of MDR1-selective agents represents a new strategy for resolving multidrug resistance, as it remains a long-standing clinical challenge for cancer chemotherapy.
Our goal is to identify compounds that selectively kill P-gp-expressing MDR cells. We will identify MDR1-selective compounds by comparing toxicity of compounds in the screening library against parental, drug-naive (KB-3-1) adenocarcinoma cells as well as their drug-selected MDR sub-line (KB-V1). The differential toxicity of compounds against these two cell lines will be used to identify MDR1-selective compounds, whose cytotoxicity is potentiated, rather than diminished, by P-gp expression. This assay will be utilized to conduct a quantitative high-throughput screen (qHTS) in collaboration with the NIH Chemical Genomics Center to identify selective agents, and probe hits arising from the screen will be validated using secondary assays and characterized through a well-established follow-up research program. This screen was run against the entire NCGC library collection of about 400,000 compounds.
NIH Molecular Libraries Probe Production Network [MLPCN]
NIH Chemical Genomics Center [NCGC]
PI: Michael Gottesman PhD, National Cancer Institute, NIH
Briefly, 5 microL of media containing either KB-3-1 cells (columns 1-2, 4-48) are dispensed into Greiner white, treated solid-bottom 1536-well assay plates (media-only control is added to column 3). Compounds are then transferred via Kalypsys pin tool equipped with 1536-pin array (10 nL slotted pins, V&P Scientific, San Diego, CA). Following addition of compound, the plates are incubated at 37 degrees C for 72 hours. CellTiter-Glo (2.5 µL/well) is then added, and the plates are read in a ViewLux reader (Perkin-Elmer, clear luminescence filter, 1 second exposure, 1x binning) following a 10 minute incubation. All cells are dispensed in DMEM phenol-red free media containing 10% FBS.
Library plates were screened starting from the lowest and proceeding to the highest concentration. Vehicle-only plates, with DMSO being pin-transferred to columns 5-48, will be inserted uniformly at the beginning and the end of each library in order to monitor and record any shifts in the background, which can be affected by reagent dispensers or loss in enzyme activity over time. Screening data will be corrected, normalized, and concentration-effect relationships will be derived by using publicly-available NCGC, NCATS curve fitting algorithms (http://ncgc.nih.gov/pub/openhts).
% is set by controls: 0 for no effect and ±100 for the full control effect; potency is the fitted concentration of half-maximal effect.

Row | SMILES | activity change, negative = cytotoxic | Potency
1 | C[C@@H]1C=CCP(=O)(Oc2ccccc2)O1 (stereo partly specified) | inactive: 12.7% | 
2 | CC(=O)c1ccc(N2CC2c2ccncc2)cc1 (stereo unspecified) | inactive: 15.1% | 
3 | COC(=O)C1(C)COP(=O)(NCc2ccccc2)OC1 (stereo unspecified) | inactive: 3.8% | 
4 | CC(=O)Nc1ccc([As](=O)(O)O)c(O)c1 | inactive: 10.1% | 
5 | CC(=O)Nc1ccc(Oc2c([N+](=O)[O-])cc([N+](=O)[O-])cc2[N+](=O)[O-])cc1 | inactive: 12.7% | 
6 | O=P1(Nc2nc3ccc(Cl)cc3s2)COc2ccccc2O1 (stereo unspecified) | inactive: 3.39% | 
7 | CCOc1ccc(C2=NCC(CBr)S2)cc1 (stereo unspecified) | inactive: 8.61% | 
8 | CC(C)(C)C(=O)NC(Sc1ccccc1)C(Cl)(Cl)Cl (stereo unspecified) | inactive: 7.94% | 
9 | CCc1cc(O)c([N+](=O)[O-])c(C)c1[N+](=O)[O-] | inactive: 0% | 
10 | COc1cccc([N+](=O)[O-])c1[N+](=O)[O-] | inactive: 18.3% | 
11 | CC(C)C(=O)NC(Sc1ccccc1)C(Cl)(Cl)Cl (stereo unspecified) | inactive: 16.7% | 
12 | O=P(Nc1nccs1)(c1ccccc1)c1ccccc1 | inactive: 2.92% | 
13 | c1nnnn1CCn1cnnn1 | inactive: 15.1% | 
14 | O=[As](O)(c1ccccc1)c1ccc(O)cc1 | inactive: -5.88% | 
15 | O=[N+]([O-])c1ccc(O)c(/C=N/Nc2ccc([N+](=O)[O-])cc2[N+](=O)[O-])c1 |  | active: 5.8 µM
16 | CC(=O)NC(SC(=S)N(C)C)C(Cl)(Cl)Cl (stereo unspecified) | inactive: -4.16% | 
17 | O=[N+]([O-])c1ncn(CCn2cnc([N+](=O)[O-])n2)n1 | inactive: 1.31% | 
18 | O=C(OC1CN2CCC1CC2)c1cccc(Cl)c1 (stereo unspecified) | inactive: 4.71% | 
19 | C(Cc1nn[nH]n1)Cc1nn[nH]n1 | inactive: 16.9% | 
20 | Nc1ccc([As](=O)(O)c2ccc([N+](=O)[O-])cc2)cc1 | inactive: 10.2% | 
21 | O=P(Nc1ccccn1)(c1ccc(Br)cc1)c1ccc(Br)cc1 |  | active: 23.1 µM

Row | SMILES | activity change, negative = cytotoxic | Potency
22 | CN(C)C1(CNC(=O)c2ccc(Cl)c(S(N)(=O)=O)c2)CCCCC1 | inactive: 19.1% | 
23 | COc1ccc(N)c([N+](=O)[O-])c1[N+](=O)[O-] | inactive: -0.0278% | 
24 | Nc1ccc(CCCCOc2ccccc2)cc1 | inactive: 0.586% | 
25 | O=P(Nc1nc2ccccc2s1)(c1ccccc1)c1ccccc1 | inactive: 2.24% | 
26 | C[C@H]1OP(=O)(Oc2ccccc2)[C@H](O)[C@H](O)[C@H]1N=[N+]=[N-] (stereo partly specified) | inactive: 6.91% | 
27 | Cc1ccc(S(=O)(=O)N(CCCN)CCCc2c(C)nc(N)[nH]c2=O)cc1 | inactive: 7.64% | 
28 | O=P1(Nc2ncccn2)COc2ccccc2OC1 | inactive: -10.3% | 
29 | Nc1cccc([As](=O)(O)c2ccccc2)c1 | inactive: 8.59% | 
30 | Cc1ccc(OCC(=O)OC2CN3CCC2CC3)cc1 (stereo unspecified) | inactive: 1.23% | 
31 | O=[As](O)(c1cccs1)c1cccs1 | inactive: 10% | 
32 | O=P1(Nc2ccc(Br)cn2)COc2ccccc2OC1 | inactive: 3.08% | 
33 | NS(=O)(=O)c1cccc(NC(=O)COC(=O)C(O)(c2ccccc2)c2ccccc2)c1 | inactive: 0% | 
34 | Cc1nn(-c2ccccc2)c2c1P(=O)(N1CCOCC1)N(C)C(c1ccccc1)=N2 (stereo unspecified) | inactive: -4.66% | 
35 | CC1CCC(C(C)C)C(OP(=O)(Nc2ccccn2)c2ccccc2)C1 (stereo unspecified) |  | active: 18.4 µM
36 | Cc1ccc(C(=O)OC2CN3CCC2CC3)cc1 (stereo unspecified) | inactive: -19.3% | 
37 | COc1cc([N+](=O)[O-])ccc1[N+](=O)[O-] | inactive: -17.3% | 
38 | CN(C)C1(CNC(=O)c2ccc(S(C)(=O)=O)cc2)CCCCC1 | inactive: -3.17% | 
39 | O=C(/C=C/c1ccccc1)OC1CN2CCC1CC2 (stereo unspecified) | inactive: 9.31% | 
40 | CCCC1OP(=O)(Nc2ccccc2)OCC1CC (stereo unspecified) | inactive: -0.496% | 
41 | COc1ccccc1CNC(=O)COC(=O)C(O)(c1ccccc1)c1ccccc1 | inactive: 5.41% | 
42 | CC(C)/C=N\N=C(\N)N[N+](=O)[O-] | inactive: 9.36% | 

Row | SMILES | activity change, negative = cytotoxic | Potency
43 | CN(C(=O)Cc1ccc(Cl)c(Cl)c1)[C@@H]1CCCC[C@H]1N1CCCC1 | inactive: 0% | 
44 | CC1(CBr)Cn2c(nc3ccccc3c2=O)S1 (stereo unspecified) | inactive: -1.01% | 
45 | O=P1(Nc2ccccn2)COc2ccccc2OC1 | inactive: -1.65% | 
46 | CCOP(=O)(NC(=NC(C)c1ccccc1)NC(C)c1ccccc1)OCC (stereo unspecified) | inactive: 2.89% | 
47 | CCOP(=O)(Nc1ccc(C)cn1)OCC | inactive: 0% | 
48 | CN(CCCl)Cc1cc(Cl)c(NC2=NCCN2)c(Cl)c1 | inactive: -0.16% | 
49 | O=P1(N(CCCl)CCCl)NCCC(C(F)(F)F)O1 (stereo unspecified) | inactive: 2.02% | 
50 | Clc1n[nH]nc1-c1nn[nH][15n]1 | inactive: -0.156% | 
51 | CC(C)(C)C(=O)NC(Sc1ncccn1)C(Cl)(Cl)Cl (stereo unspecified) | inactive: 8.02% | 
52 | Cc1ccc(NCCc2c([N+](=O)[O-])cc([N+](=O)[O-])cc2[N+](=O)[O-])cc1 | inactive: -1.17% | 
53 | Nc1cccc2c([As](=O)(O)O)cccc12 | inactive: -5.93% | 
54 | CCCOP(=S)(Nc1nc(N)cc(=O)[nH]1)OCCC | inactive: 1.95% | 
55 | COc1cc(C2NCCC3(OCCO3)C2(C)C)cc(OC)c1OC (stereo unspecified) | inactive: 0.0525% | 
56 | CCOP(=O)(Nc1cccc2ccccc12)OCC | inactive: 0.339% | 
57 | O=C(OC1CN2CCC1CC2)c1ccc(Cl)cc1 (stereo unspecified) | inactive: -1.94% | 
58 | O=[As](O)(O)c1cccnc1 | inactive: 9.75% | 
59 | COc1cc(C(=O)NCC2(N3CCOCC3)CCCCC2)cc(Cl)c1OC(C)C | inactive: -0.0907% | 
60 | CS(=O)(=O)c1ccc(Cl)c(NC(=O)COC(=O)C(O)(c2ccccc2)c2ccccc2)c1 | inactive: 26.8% | 
61 | Cc1cccc(OCC(=O)OC2CN3CCC2CC3)c1 (stereo unspecified) | inactive: -0.641% | 
